From ChEMBL document CHEMBL1130370, “Novel hydroxyphosphonate inhibitors of CD-45 tyrosine phosphatase” (Bioorg Med Chem Lett, 1997)

Protein sequences, listed by entry. Tags and fused reporters are not part of them. Residues count along the entry.
UniProt P08575, 26-1306 limits assumed: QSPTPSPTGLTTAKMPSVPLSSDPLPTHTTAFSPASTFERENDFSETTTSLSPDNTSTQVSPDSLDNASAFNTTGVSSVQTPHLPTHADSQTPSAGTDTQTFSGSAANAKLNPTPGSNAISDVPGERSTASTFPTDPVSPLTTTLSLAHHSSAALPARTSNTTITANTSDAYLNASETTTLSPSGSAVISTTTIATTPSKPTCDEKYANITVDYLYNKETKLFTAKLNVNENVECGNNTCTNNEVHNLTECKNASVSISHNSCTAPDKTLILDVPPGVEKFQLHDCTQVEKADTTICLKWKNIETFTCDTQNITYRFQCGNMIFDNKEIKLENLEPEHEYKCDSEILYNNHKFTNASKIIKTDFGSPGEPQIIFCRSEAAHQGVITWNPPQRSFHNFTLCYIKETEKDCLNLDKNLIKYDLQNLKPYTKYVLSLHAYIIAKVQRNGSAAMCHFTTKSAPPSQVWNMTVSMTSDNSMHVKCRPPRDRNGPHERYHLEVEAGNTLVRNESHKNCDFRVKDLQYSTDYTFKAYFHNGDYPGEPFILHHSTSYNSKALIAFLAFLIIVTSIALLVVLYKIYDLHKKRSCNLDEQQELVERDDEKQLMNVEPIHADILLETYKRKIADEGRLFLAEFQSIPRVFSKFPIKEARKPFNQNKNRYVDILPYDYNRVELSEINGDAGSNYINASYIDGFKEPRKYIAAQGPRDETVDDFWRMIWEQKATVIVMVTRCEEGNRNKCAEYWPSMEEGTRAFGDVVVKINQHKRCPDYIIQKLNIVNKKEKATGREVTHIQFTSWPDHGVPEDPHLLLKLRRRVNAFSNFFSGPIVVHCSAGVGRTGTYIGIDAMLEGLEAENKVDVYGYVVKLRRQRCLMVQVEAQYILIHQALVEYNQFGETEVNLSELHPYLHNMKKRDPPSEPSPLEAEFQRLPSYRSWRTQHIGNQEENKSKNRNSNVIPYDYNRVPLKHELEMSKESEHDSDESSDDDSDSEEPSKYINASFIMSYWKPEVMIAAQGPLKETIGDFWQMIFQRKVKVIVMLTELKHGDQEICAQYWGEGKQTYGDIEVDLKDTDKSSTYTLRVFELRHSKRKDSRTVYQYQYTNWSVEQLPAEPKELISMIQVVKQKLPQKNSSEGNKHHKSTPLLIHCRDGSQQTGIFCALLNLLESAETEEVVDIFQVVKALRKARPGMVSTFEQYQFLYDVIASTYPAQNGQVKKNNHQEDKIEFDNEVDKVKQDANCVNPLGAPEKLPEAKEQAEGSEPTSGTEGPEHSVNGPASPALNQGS

Target: Receptor-type tyrosine-protein phosphatase C (Homo sapiens, UniProt P08575)
Test: Tested for inhibitory activity against CD-45 tyrosine phosphatase of Jurkat cell membrane at 1000 uM

## [N-]=[N+]=Nc1ccc([N+](=O)[O-])cc1C(O)P(=O)(O)O (stereo unspecified)
  IC50: 8 µM
